Results from PubChem BioAssay (EPA / NIEHS).
The entries are a selection whose mix differs from that of the whole data set. Records with an inconclusive call do not appear. Active and inactive are the calls of the source. Rule for the calls, unless noted: active = hit-call score of the fitted dose curve at least 0.9, where 1 is the maximum; inconclusive = response in the unintended direction; inactive = score below 0.9.

What was measured:
[1] = Tanguay_ZF_120hpf_PIG_legacy: (Legacy) Oregon State University Tanguay Lab 120 Hour Post-fertilization zebrafish Assay for Pigmentation Malformation (AID 2283650)
In short: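 Endpoint is incidence of abnormal pigmentation at 120 hpf in dechorionated 5D zebrafish exposed singly from 6 hpf at 28C, DMSO vehicle at 0.64%. Embryos dying by 24 or 120 hpf are excluded from scoring.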

[2] = Tanguay_ZF_120hpf_CIRC_legacy: (Legacy) Oregon State University Tanguay Lab 120 Hour Post-fertilization zebrafish Assay for Circulatory Malformation (AID 2283651)
Protocol: (§1) Tanguay_ZF_120hpf_legacy is a whole embryo, multiplexed endpoint assay using zebrafish larvae exposed for 120 hours post fertilization on a 96-well plate.Tanguay_ZF_120hpf_CIRC_legacy is one of one assay component(s) measured or calculated from the Tanguay_ZF_120hpf_legacy assay. It is designed to make measurements of zebrafish development as detected with brightfield microscopy of developing zebrafish embryos.Data from the assay component Tanguay_ZF_120hpf_CIRC_legacy was analyzed into 1 assay endpoints. This assay endpoint, Tanguay_ZF_120hpf_CIRC_legacy, was analyzed in the positive analysis fitting direction relative to DMSO as the negative control and baseline of activity. Using a type of morphology reporter, gain-of-signal activity can be used to understand changes in developmentals as they relate to the whole embryo. To generalize the intended target to other relatable targets, this assay endpoint is annotated to the zebrafish development intended target family, where the subfamily is angiogenesis.
(§2) Zebrafish husbandry: Tropical 5D wild-type adult zebrafish were housed in at an approximate density of 1000 per 100 gallon tank at the Sinnhuber Aquatic Research Laboratory, Oregon State University, Corvallis, OR. Each tank was kept at standard laboratory conditions of 28C on a 14-h light/10-h dark photoperiod in fish water consisting of reverse osmosis water supplemented with a commercially available salt (Instant Ocean). Spawning funnels were placed into the tanks the night prior, and embryos were collected and staged. To increase bioavailability, the chorion was enzymatically removed using pronase (63.6mg/ml, >/= 3.5U/mg, Sigma-Aldrich: P5147) at 4 hours post fertilization (hpf) using a custom automated dechorionator.Chemical exposures: Six hpf dechorionated embryos were placed 1 embryo per well in a 96-well plate prefilled with 90 ul of EM using automated embryo placement systems (AEPS). Ten microliters of each row of dilution plate 2 was added to 2 exposure plates. The final DMSO concentration used was 0.64% (vol/vol). Thirty-two embryos were also exposed to 5uM trimethyltin chloride (positive control). Plates were sealed to prevent evaporation and foil covered to reduce light exposure and kept in a 28C incubator. Embryos were statically exposed until 120 hpf. At 24 hpf, embryos were assessed for photomotor response using a custom photomotor response analysis tool (PRAT) and for developmental toxicity endpoints (MO24: mortality at 24 hpf, DP: developmental progression, SM: spontaneous movement, and NC: notochord distortion). At 120 hpf, locomotor activity was measured using Viewpoint Zebralab and assessed for 18 endpoints. Zebrafish acquisition and analysis program (ZAAP), a custom program designed to inventory, acquire, and manage zebrafish data, was used to collect developmental endpoints as either present or absent (i.e., binary responses were recorded). If mortality occurred for an embryo (at either 24 or 120 hpf), the non-mortality endpoints were not measured.

[3] = Tanguay_ZF_120hpf_SWIM_legacy: (Legacy) Oregon State University Tanguay Lab 120 Hour Post-fertilization zebrafish Assay for Swim Bladder Malformation (AID 2283654);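 note: swim bladder malformation in each larva scored yes or no under brightfield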
In short: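 Static waterborne exposure of single dechorionated Tropical 5D zebrafish embryos, 6–120 hpf, 28C, 0.64% DMSO final. Read-out: swim bladder malformation, present/absent, relative to DMSO negative control; trimethyltin chloride 5uM served as positive control.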

[4] = Tanguay_ZF_120hpf_TRUN_legacy: (Legacy) Oregon State University Tanguay Lab 120 Hour Post-fertilization zebrafish Assay for Truncated Body (AID 2283655)
Protocol: as §1, with “plate.Tanguay_ZF_120hpf_TRUN_legacy” for “plate.Tanguay_ZF_120hpf_CIRC_legacy”, “Tanguay_ZF_120hpf_TRUN_legacy” for “Tanguay_ZF_120hpf_CIRC_legacy”, “Tanguay_ZF_120hpf_TRUN_legacy,” for “Tanguay_ZF_120hpf_CIRC_legacy,”, “embryonic morphogenesis.” for “angiogenesis.”
as §2, with “Thirty-two embryos were also exposed to 5uM trimethyltin chloride (positive control). Plates were sealed to prevent evaporation and foil covered to reduce light exposure and kept in a 28C incubator. Embryos were statically exposed until 120 hpf.” left out

[5] = Tanguay_ZF_120hpf_NC_legacy: (Legacy) Oregon State University Tanguay Lab 120 Hour Post-fertilization zebrafish Assay for Notochord and Tail Malformation (AID 2283656)
In short: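 Binary notochord-distortion calls, made by brightfield inspection, form the read-out; activity is fitted in the positive direction against DMSO. Exposure ran statically from 6 to 120 hpf at 28C with 0.64% DMSO.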

[6] = Tanguay_ZF_120hpf_TR_legacy: (Legacy) Oregon State University Tanguay Lab 120 Hour Post-fertilization zebrafish Assay for Touch Response (AID 2283667)
In short: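 Readout is presence or absence of touch response in 120 hpf zebrafish larvae, assessed by brightfield observation after continuous static exposure at 28C. Final vehicle was 0.64% (vol/vol) DMSO.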

[7] = STM_H9_OrnithineISnorm_perc: Stemina devTOX quickPredict H9 human embryonic stem cell (hESC)-based Assay for Ornithine (ORN) Metabolite Biomarker, Normalized (AID 2283712; active = hit-call score of the fitted dose curve at least 0.9, where 1 is the maximum; inactive = score below 0.9;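 note: ornithine released into spent medium during last day measured by mass spectrometry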)
Excerpt: (§3) STM_H9_secretome utilizes undifferentiated H9 cells to measure relative changes in two metabolites, ornithine (ORN) and cystine (CYSS) in the secretome, targeting a critical drop in the ORN/CYSS ratio as a biomarker for developmental toxicity.STM_H9_OrnithineISnorm is one of 10 components calculated in the STM_H9_secretome assay. It measures the integrated area of the endogenous ornithine normalized to the spiked-in isotopically labeled standard and to the median value of the 0.1% DMSO neutral control treatment using UPLC-HRMS technology.Data from the assay component STM_H9_OrnithineISnorm_perc was analyzed at the assay endpoint STM_H9_OrnithineISnorm_perc in the positive analysis fitting direction relative to DMSO as the negative control and baseline of activity. […]
(§4) H9 hESCs maintained in a pluripotent state were exposed to test compound for 72h with chemical replenishment with media replacement every 24h. Cell-conditioned media from the final 24-h treatment period was collected for analysis of the targeted biomarker, and cell viability of the corresponding cell layer was assessed. […] Cell viability was measured using the CellTiter-Fluor assay (Promega, Madison, Wisconsin) based on proteolytic cleavage of a substrate to fluorescent signal proportional to the number of living cells. […]

[8] = STM_H9_CystineISnorm_perc: Stemina devTOX quickPredict H9 human embryonic stem cell (hESC)-based Assay for Cystine (CYSS) Metabolite Biomarker, Normalized (AID 2283713; active = hit-call score of the fitted dose curve at least 0.9, where 1 is the maximum; inactive = score below 0.9)
Excerpt: as §3, with “developmental toxicity.STM_H9_CystineISnorm_perc” for “developmental toxicity.STM_H9_OrnithineISnorm”, “endogenous cystine” for “endogenous ornithine”, “component STM_H9_CystineISnorm_perc” for “component STM_H9_OrnithineISnorm_perc”, “endpoint STM_H9_CystineISnorm_perc” for “endpoint STM_H9_OrnithineISnorm_perc”
as §4

[9] = STM_H9_OrnCyssISnorm_ratio: Stemina devTOX quickPredict H9 human embryonic stem cell (hESC)-based Assay for Ornithine (ORN):Cystine (CYSS) Ratio (AID 2283714)
In short: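 H9 hESC, 72h, q24h re-dose; last-day media → acetonitrile deproteinization → UPLC-HRMS. ORN:CYSS ratio from isotope-normalized EIC areas, vs 0.1% DMSO; MTX references on each plate.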

[10] = CCTE_Padilla_ZF_144hpf_TERATOSCORE: (Legacy) CCTE's 144 Hour Post-fertilization zebrafish Assay Teratoscore, Padilla Lab (AID 2283679; active = hit-call score of the fitted dose curve at least 0.9, where 1 is the maximum; inactive = score below 0.9;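 for AC50: zebrafish embryos with chorions exposed by immersion from 6-8 hpf to 5 dpf with daily renewal; teratogenicity score from eye scoring of death hatching and malformations at 144 hpf; higher score means more developmental defects relative to DMSO baseline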)
In short: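 Larvae scored by eye at 144 hpf for death, hatching and malformations after a day in clean Hanks'. Before that, daily-renewed exposure at 80 uM (0.4% DMSO, 26C) from roughly 6-8 hpf through 5 dpf, 4 embryos per chemical.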

Structure (SMILES)	outcome [1]	outcome [2]	outcome [3]	outcome [4]	outcome [5]	outcome [6]	AC50 [7]	AC50 [8]	AC50 [9]	AC50 [10]	outcome [10]
Cc1ccc([N+](=O)[O-])cc1[N+](=O)[O-]	inactive	inactive	inactive	inactive	inactive	inactive	active: 86.4 µM	active: 64.8 µM	active: 68.9 µM	–	–
O=[N+]([O-])c1cccc([N+](=O)[O-])c1	inactive	inactive	inactive	–	–	inactive	active: 72.7 µM	active: 22.3 µM	active: 44.8 µM	active: 67.7 µM	–
Cc1cccc([N+](=O)[O-])c1[N+](=O)[O-]	inactive	inactive	inactive	inactive	inactive	inactive	–	–	–	active: 5.77 µM	–
CC(C)OP(C)(=O)OC(C)C	inactive	inactive	inactive	inactive	inactive	inactive	–	–	–	–	inactive
Cc1c([N+](=O)[O-])cccc1[N+](=O)[O-]	inactive	inactive	inactive	inactive	inactive	inactive	–	–	–	active: 53.2 µM	–
